# Sfp PPTase inh – Sfp phosphopantetheinyl transferase inhibition | Q9F4F7 | Biochemical Sfp PPTase activity, qHTS | Potency, µM, inactives show max response, negative = inhibition, usual class: inhibitors | actives 3.5% (n = 310,000) | AID 1490; active = well fitted inhibition curve with a large enough effect; inconclusive = small, poorly fitted or top-dose-only effect, or another doubt; inactive = no such curve, though single readings can be large or run the other way;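 also: the enzyme is Sfp with the accession as filed and its product quenches rhodamine fluorescence; potency is read from the fitted curve at half-maximal effect; 0% = enzyme reaction without inhibitor and -100% = no enzyme wells; top concentration of the series not given in the record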
#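 After 15 min at room temperature with compound, 15 nM Sfp received 5 uM rhodamine-CoA plus 12.5 uM BHQ-2-ybbR (50 mM Hepes pH 7.6, 10 mM MgCl2). Rate came from the fluorescence difference over 30 min, ex 525/em 598 nm.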
# miR-21 reporter – miR-21 reporter, rising signal. 340,000 tested, under 10 active. Potency, µM (highest dose often 38.3 µM), for the others: at the highest dose reporter change, positive = more light. HeLa miR-21 FLuc reporter, luciferase, 48 h. AID 2288; active = well fitted rising curve with a large enough effect; inconclusive = small, poorly fitted or top-dose-only effect; inactive = no such curve, though single readings can be large or run the other way;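 further: % of control where 0% means no effect; miR-21 action dims this reporter so a rising signal means less miR-21 action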
#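 Luminescence from a firefly luciferase reporter carrying a miR-21 binding site downstream, stably expressed under a CMV promoter in HeLa cells that make miR-21 endogenously, reports miRNA modulation after 48 h compound exposure up to approximately 40uM final.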
# JMJD2E inh – inhibitors of human JMJD2E histone demethylase; Potency, µM (highest dose often 57.1 µM), for the others: at the top dose activity change, negative = inhibition, hits mostly inhibitors; actives 1.6% (n = 230,000); JMJD2E catalytic domain, FDH-coupled NADH fluorescence (FDH is formaldehyde dehydrogenase); B2RXH2; active = well fitted inhibition curve with a large enough effect, not every such curve was filed as active; inconclusive = small, poorly fitted or top-dose-only effect, or another doubt; inactive = no such curve, though single readings can be large or run the other way;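 note: potency is the fitted concentration of half-maximal effect; 0% = wells with enzyme and -100% = buffer wells without enzyme; nearly all actives have a fitted effect of over 50% in size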
# ALDH1A1 block – inhibitors of human aldehyde dehydrogenase 1A1. Purified ALDH1A1, NADH fluorescence, propionaldehyde substrate. actives 7.3% (n = 220,000). Potency, µM (titrated, usually from 75.3 µM), without a hit: top-dose activity, negative = inhibition, usual class: inhibitors. AID 1030. P00352; active = well fitted inhibition curve with a large enough effect, not every such curve was filed as active; inconclusive = small, poorly fitted or top-dose-only effect, or another doubt; inactive = no such curve, though single readings can be large or run the other way;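 note: potency is the fitted concentration of half-maximal effect; plate controls were no enzyme wells and a reference inhibitor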
# G9a block – inhibitors of human histone lysine methyltransferase G9a; Q96KQ7; G9a H3K9 monomethylation, AlphaScreen, 2 h; Potency, µM (doses to about 102 µM), inactives show at the top dose activity, negative = inhibition, most hits filed as inhibitors; actives 8.8% (n = 350,000); note: potency is the fitted concentration of half-maximal effect; % is set by controls: 0 for no effect and ±100 for the full control effect; nearly all actives have a fitted effect of over 75% in size
#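 G9a (20 nM) was preincubated 15 min with compound, then reacted 2 h at room temperature with 500 nM biotin-H3K9 peptide and 20 µM SAM. Monomethyl-H3K9 detected by AlphaScreen using anti-H3K9me1 antibody.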
# Lamin A splicing – changes lamin A minigene splicing in HeLa cells | HeLa LMNA splicing GFP/RFP minigene ratio, 48 h | Potency, µM (titrated, usually from 46.1 µM), for inactives: at the highest dose ratio change, negative = inhibition, usual class: inhibitors | actives 0.01% (n = 200,000); active = well fitted inhibition curve with a large enough effect in the signal ratio, with a control signal flat, not every such curve was filed as active; inconclusive = small, poorly fitted or top-dose-only effect, or effect the other way, or a change in a side signal; the % refers to the signal ratio; note: potency is the fitted concentration of half-maximal effect; % is set by controls: 0 for no effect and ±100 for the full control effect
#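 Read-out is the ratio of GFP to DsRed2 object intensity, acquired by 488 nm laser-scanning cytometry on HeLa lamin A-EGFP minigene reporter cells. Compound incubation 48 hrs at 37 °C in Opti-MEM with 2% FBS; DMSO 0.5% final.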
# Active calls of the source: *; ? = inconclusive; / = no result given; [ ] = dose if it differs, or a comment. Most compounds without a hit are left out; they make up all but 13% or so of the library. Unless noted, calls come from the whole dose curve; as a rule, active = well fitted curve in the direction sought with a large enough effect; inconclusive = small, poorly fitted or top-dose-only effect, or another doubt; inactive = no such curve, though single readings can be large; an effect the other way counts as inactive or inconclusive.
no.	mol	Sfp PPTase inh	miR-21 reporter	JMJD2E inh	ALDH1A1 block	G9a block	Lamin A splicing
1	NC(=S)N/N=C/c1ncc(C(F)(F)F)cc1Cl	25µM*	24%	?	/	-28%	/
2	NC(=S)N/N=C/c1ccc(C(F)(F)F)cc1	-16%	16%	-2%	20%	8%[59 µM]	?
3	CCOC(=S)SCC(=O)N1CCc2cc(OC)c(OC)cc2C1C1C(=O)CC(C)(C)CC1=O (stereo not drawn)	-17%	-6%	?	-14%	45µM*	10%
4	O=C(Nc1ccc(Cl)cc1F)C1CCCN(C2=NS(=O)(=O)c3ccccc32)C1 (stereo not drawn)	/	/	/	/	50µM*	/
5	Cc1ccc(NC(=O)C2CCCN(C3=NS(=O)(=O)c4ccccc43)C2)c(O)c1 (stereo not drawn)	/	/	/	/	14%[12.7 µM]	/
6	COc1ccc(CC(=O)OCC(=O)N(CC(C)C)c2c(N)n(Cc3ccccc3)c(=O)[nH]c2=O)cc1	/	/	/	/	-34%[59 µM]	/
7	CC(C)Cn1c(SCC(=O)N(C)c2c(N)n(Cc3ccccc3)c(=O)[nH]c2=O)nc2ccccc21	/	/	/	/	16µM*	/
8	COc1ccccc1C(=O)NCC(=O)OCC(=O)N(CC(C)C)c1c(N)n(Cc2ccccc2)c(=O)[nH]c1=O	/	/	/	/	56µM*	/
9	Cc1ccccc1SCC(=O)OCC(=O)N(C)c1c(N)n(Cc2ccccc2)c(=O)[nH]c1=O	/	/	/	/	10µM*	/
10	Cc1ccccc1OCCC(=O)OCC(=O)N(C)c1c(N)n(Cc2ccccc2)c(=O)[nH]c1=O	5%	0%	/	/	45µM*	/
11	CC(=O)O[C@H]1C[C@@]2(C)[C@@H](C[C@@H](O)[C@H]3[C@@]4(C)CC[C@@H](O)[C@@H](C)[C@@H]4CC[C@@]32C)/C1=C(\CCC=C(C)C)C(=O)O	/	/	/	/	-9%[59 µM]	/
12	CCOc1ccccc1N1C(=O)c2ccc(S(=O)(=O)c3ccc(C(=O)O)cc3)cc2C1=O	5%	0%	/	/	3%	/
13	CCOC(=O)c1ccccc1NC(=O)N1CCCn2nc(C)cc21	/	-10%	/	/	-3%[59 µM]	-4%[46 µM]
14	Cn1c(=O)c(Nc2ccc(Cl)cc2)c2c3c(cccc31)C(=O)c1ccccc1-2	-15%	-3%	-3%	14%	22µM*	/
15	Cc1nc2cccnc2n1-c1cccc(C(=O)NCc2ccc(OC(C)C)cc2)c1	/	12%	/	/	-30%[59 µM]	/
16	C1=C(c2ccccc2)N2CCN=C2S1	14%	-1%	8%	6%	-36%[59 µM]	-10%
17	O=C(CC1SC2=NCCN2C1=O)Nc1ccc(Cl)cc1 (stereo not drawn)	15%	1%	4%	7%	-2%[59 µM]	0%
18	Nc1ccc2c(c1)N1CCN=C1S2	4%	-2%	3%	2%	7.1µM*	12%
19	O=C(Nc1ccc(Cl)cc1)Nc1ccc2c(c1)N1CCN=C1S2	-2%	26%	1%	5%	32µM*	?
20	COc1cccc(OCC(=O)NCCS(=O)(=O)N2CCN(c3ccccc3F)CC2)c1	/	1%	/	/	12%[59 µM]	-10%[46 µM]
21	CC(C)Nc1nc(NC(N)=S)nc(NC(C)C)n1	-3%	-25%	4%	9%	2.5µM*	1%
22	CC(C)Nc1nc(NC(N)=S)nc(NC(C)(C)C)n1	-4%	-15%	?	?	8.9µM*	6%[46 µM]
23	COc1cccc(-c2nnc3sc(CN4CCCCC4)cn23)c1	/	14%	/	/	13µM*	?
24	O=C(CCl)Nc1nc(-c2ccco2)c(-c2ccco2)s1	45µM*	-1%	?	0.4µM*	11µM*	?
25	O=C(CCCSc1ccccc1)Nc1nc(-c2ccccn2)cs1	-17%	-2%	-11%	?	?	?
26	Cc1ccc(C(=O)Nc2nc(-c3ccco3)c(-c3ccco3)s2)o1	/	/	/	/	14µM*	/
27	O=C(CCCSc1ccccc1)Nc1nc(-c2ccco2)c(-c2ccco2)s1	16µM*	-1%	?	?	?	-13%
28	Cc1ccc(C(=O)Nc2nc(C)c(C(=O)N(C)C)s2)o1	2%	-36%	/	/	-18%	/
29	CC(C)Sc1nnc(NC(=O)c2ccco2)s1	-25%	-43%	-2%	14µM*	25µM*	/
30	COc1ccccc1N1CCN(C(=O)CSc2nc(-c3ccco3)cc(C(F)(F)F)n2)CC1	?	3%	-24%	7.9µM*	?	-13%
31	O=C(CSc1nc(-c2ccco2)cc(C(F)(F)F)n1)N1CCN(Cc2ccccc2)CC1	-21%	0%	-8%	16µM*	?	-3%
32	COc1ccccc1N1CCN(C(=O)CSc2nnc(NC(=O)c3ccco3)s2)CC1	12%	-10%	3%	0%	50µM*	-3%
33	CCSc1nnc(NC(=O)c2ccco2)s1	5%	-38%	5%	7%	-33%[59 µM]	-7%
34	CCN(CC(=O)Nc1ccc(OC)cc1)C(=O)c1ccc2c(=O)n3c(nc2c1)CCC3	/	/	/	/	15%[59 µM]	/
35	O=C(O)CCC[C@H](O)\C=C/C=C/C=C/[C@H](O)C/C=C\CCCCCO	18%	/	2%	-14%	/	/
36	C=CCn1c(O)c(N=NC(=O)OC(C)(C)C)c2ccccc21	-1%	-12%	0%	?	8%[59 µM]	-8%
37	C=CCn1c(O)c(N=O)c2ccccc21	7%	-5%	-18%	/	16%	/
38	C=CCn1c(O)c(N=Nc2ccccc2C)c2ccccc21	25µM*	1%	-19%	2.8µM*	4µM*	0%[46 µM]
39	C=CCn1c(O)c(N=NC(=S)Nc2ccc(OC)c(Cl)c2)c2ccccc21	1.8µM*	19%	4%	22µM*	35µM*	?
40	Cc1nn(C)c(C)c1C(C)NC(=O)c1cc(COc2ccc(F)c(F)c2)on1 (stereo not drawn)	1%	-14%	/	/	3%[0.501 µM]	/
41	CC(C)Oc1ccc(CNS(=O)(=O)c2cnc(N)nc2)cc1	/	-4%	/	/	12%[59 µM]	-12%[46 µM]
42	Cc1nn2c(nc1=O)NNC2(C)C(C)(C)C (stereo not drawn)	35µM*	21%	-5%	2%	25%	/
43	Cn1cc(P(=S)(N2CCOCC2)N2CCOCC2)cc1P(=O)(N1CCOCC1)N1CCOCC1	50µM*	-1%	-13%	?	10µM*	-11%[46 µM]
44	Cn1cc(P(=O)(N2CCOCC2)N2CCOCC2)cc1P(=S)(N1CCOCC1)N1CCOCC1	20µM*	0%	-7%	?	40µM*	-4%[46 µM]

# 6 compounds picked at random from those above, as already listed:
no.	mol	Sfp PPTase inh	miR-21 reporter	JMJD2E inh	ALDH1A1 block	G9a block	Lamin A splicing
42	Cc1nn2c(nc1=O)NNC2(C)C(C)(C)C (stereo not drawn)	35µM*	21%	-5%	2%	25%	/
35	O=C(O)CCC[C@H](O)\C=C/C=C/C=C/[C@H](O)C/C=C\CCCCCO	18%	/	2%	-14%	/	/
40	Cc1nn(C)c(C)c1C(C)NC(=O)c1cc(COc2ccc(F)c(F)c2)on1 (stereo not drawn)	1%	-14%	/	/	3%[0.501 µM]	/
37	C=CCn1c(O)c(N=O)c2ccccc21	7%	-5%	-18%	/	16%	/
33	CCSc1nnc(NC(=O)c2ccco2)s1	5%	-38%	5%	7%	-33%[59 µM]	-7%
39	C=CCn1c(O)c(N=NC(=S)Nc2ccc(OC)c(Cl)c2)c2ccccc21	1.8µM*	19%	4%	22µM*	35µM*	?
